The values that follow come from patent US6107076A, “Soluble mammalian adenylyl cyclase and uses therefor” (Board of Regents, The University of Texas System, priority 1996, dated 2000).

The chains behind the UniProt entries cited, without tags or fusion partners. Where a name states a change or a piece, a line headed by the entry shows the natural chain unless it says otherwise.
UniProt P26769: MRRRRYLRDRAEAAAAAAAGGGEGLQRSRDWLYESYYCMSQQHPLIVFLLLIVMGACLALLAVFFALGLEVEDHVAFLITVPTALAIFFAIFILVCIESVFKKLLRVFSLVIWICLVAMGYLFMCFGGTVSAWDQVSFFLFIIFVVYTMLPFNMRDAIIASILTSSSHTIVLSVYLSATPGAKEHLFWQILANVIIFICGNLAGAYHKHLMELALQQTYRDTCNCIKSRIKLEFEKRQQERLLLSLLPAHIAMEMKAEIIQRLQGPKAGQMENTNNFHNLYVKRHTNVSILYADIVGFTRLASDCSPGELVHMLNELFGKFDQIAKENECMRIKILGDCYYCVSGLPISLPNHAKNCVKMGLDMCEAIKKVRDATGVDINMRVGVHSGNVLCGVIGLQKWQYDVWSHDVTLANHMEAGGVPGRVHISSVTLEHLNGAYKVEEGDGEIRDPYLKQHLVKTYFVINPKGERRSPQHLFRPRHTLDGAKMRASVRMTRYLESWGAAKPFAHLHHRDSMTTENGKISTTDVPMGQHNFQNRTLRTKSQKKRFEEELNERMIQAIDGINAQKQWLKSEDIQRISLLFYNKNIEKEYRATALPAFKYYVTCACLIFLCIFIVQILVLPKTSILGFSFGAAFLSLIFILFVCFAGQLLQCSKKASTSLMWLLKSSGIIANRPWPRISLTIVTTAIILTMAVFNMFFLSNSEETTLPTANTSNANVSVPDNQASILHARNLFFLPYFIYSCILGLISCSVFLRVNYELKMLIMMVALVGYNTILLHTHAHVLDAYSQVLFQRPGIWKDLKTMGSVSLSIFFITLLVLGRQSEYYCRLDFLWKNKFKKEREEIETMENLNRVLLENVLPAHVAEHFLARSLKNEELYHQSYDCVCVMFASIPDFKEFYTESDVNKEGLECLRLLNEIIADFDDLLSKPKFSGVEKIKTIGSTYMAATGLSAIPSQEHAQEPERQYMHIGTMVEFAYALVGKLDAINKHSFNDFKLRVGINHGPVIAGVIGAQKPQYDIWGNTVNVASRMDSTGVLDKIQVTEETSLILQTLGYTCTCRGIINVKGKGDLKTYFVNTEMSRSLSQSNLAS

The assay deals with T1, soluble adenylyl cyclase chimera IC1 IIC2 -L3 (C1a of type I adenylyl cyclase, residues 271-484, linked to C2a of type II adenylyl cyclase, residues 821-1090) (UniProt P19754+P26769).
T1 construct: IC1a includes residues 271-484 of type I adenylyl cyclase; IIC2a includes residues 821-1090 of type II adenylyl cyclase; made in house; host or cells: E. coli TP2000 (150,000 g supernatant)
T1 sequence (P19754+P26769 with tags, fused parts or gaps): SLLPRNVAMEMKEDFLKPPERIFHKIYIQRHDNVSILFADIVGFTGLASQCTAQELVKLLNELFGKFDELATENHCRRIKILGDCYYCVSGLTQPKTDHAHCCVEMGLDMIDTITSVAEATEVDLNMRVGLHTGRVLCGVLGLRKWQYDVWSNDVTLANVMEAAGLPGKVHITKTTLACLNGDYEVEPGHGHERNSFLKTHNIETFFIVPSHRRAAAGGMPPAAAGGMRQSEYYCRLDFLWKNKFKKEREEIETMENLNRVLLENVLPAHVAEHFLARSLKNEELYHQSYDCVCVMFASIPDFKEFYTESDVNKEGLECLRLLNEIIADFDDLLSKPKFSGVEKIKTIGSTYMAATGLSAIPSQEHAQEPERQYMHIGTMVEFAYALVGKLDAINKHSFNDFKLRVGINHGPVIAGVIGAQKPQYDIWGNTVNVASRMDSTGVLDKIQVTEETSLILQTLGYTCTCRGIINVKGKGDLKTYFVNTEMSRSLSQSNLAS
In words: Adenylyl cyclase activity of 150,000 g supernatant from E. coli expressing IC1 IIC2 -L3. In kind it is biochemical, mammalian. To be noted: forskolin plus GTP-γ-S-Gα. As for the experimental part:
FIG. 2--Enzyme activity of chimeras.
Data shown are representative of at least two studies.
E. coli that contained the desired plasmids were grown in LB plus 50 μM carbenicillin to OD600 =0.3. Isopropyl-β-D-thiogalactopyranoside(100 μM) and chloramphenicol (0.5 μM) were added to induce expression of adenylyl cyclase for 12 hours. Bacteria were then collected by centrifugation at 4° C. and lysed by incubation at 4° C. for 30 min in 20 mM Tris-HCl (pH 8.0), 1 mM EDTA, 2 mM dithiothreitol (DTT) and protease inhibitors with 0.1 mg/ml of lysozyme. The suspension was sonicated briefly (3×20 sec) during incubation. The lysate was centrifuged (4° C.) at 150,000×g for 30 min, and the supernatant was recovered.
The inventors examined adenylyl cyclase activity in vitro in 150,000 g supernatant fractions from E. coli […] transformed with the various constructs. […] Ca^2+ -calmodulin had no detectable effect on activity, and lysates from cells expressing either IC1 or IIC2 had little adenylyl cyclase activity.
However, the maximal stimulatory effect of the G protein α subunit exceeded that of forskolin (FIG. 4). […] Synergistic activation of the enzyme was thus not due to alternation of apparent substrate affinity.

Take `Nc1ncnc2c1ncn2[C@@H]1O[C@H](COP(=O)(O)OP(=O)(O)OP(=O)(O)O)[C@@H](O)[C@H]1O` [ATP]: the “Km for ATP, effect of adding GTP-γ-S-Gα in the presence of forskolin” value was “did not change the Km”.
